Results from patent US20180193330A1, “ALKYLATED TETRAHYDROISOQUINOLINES FOR BINDING TO CENTRAL NERVOUS SYSTEM RECEPTORS” (Florida A&M University, priority 2017, published 2018).

The chains behind the UniProt entries cited, without tags or fusion partners.
UniProt P08908, whole entry: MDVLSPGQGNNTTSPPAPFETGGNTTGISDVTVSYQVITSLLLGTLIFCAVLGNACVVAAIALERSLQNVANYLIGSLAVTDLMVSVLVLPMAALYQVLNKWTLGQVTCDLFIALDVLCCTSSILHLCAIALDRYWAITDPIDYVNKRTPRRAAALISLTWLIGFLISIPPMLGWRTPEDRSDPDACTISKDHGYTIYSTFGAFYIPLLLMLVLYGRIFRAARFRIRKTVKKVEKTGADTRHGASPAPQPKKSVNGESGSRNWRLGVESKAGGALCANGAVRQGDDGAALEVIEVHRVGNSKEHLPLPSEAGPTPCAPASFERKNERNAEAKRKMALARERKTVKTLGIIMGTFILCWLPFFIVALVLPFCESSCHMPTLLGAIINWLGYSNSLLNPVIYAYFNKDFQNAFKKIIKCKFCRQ
UniProt P35462, whole entry: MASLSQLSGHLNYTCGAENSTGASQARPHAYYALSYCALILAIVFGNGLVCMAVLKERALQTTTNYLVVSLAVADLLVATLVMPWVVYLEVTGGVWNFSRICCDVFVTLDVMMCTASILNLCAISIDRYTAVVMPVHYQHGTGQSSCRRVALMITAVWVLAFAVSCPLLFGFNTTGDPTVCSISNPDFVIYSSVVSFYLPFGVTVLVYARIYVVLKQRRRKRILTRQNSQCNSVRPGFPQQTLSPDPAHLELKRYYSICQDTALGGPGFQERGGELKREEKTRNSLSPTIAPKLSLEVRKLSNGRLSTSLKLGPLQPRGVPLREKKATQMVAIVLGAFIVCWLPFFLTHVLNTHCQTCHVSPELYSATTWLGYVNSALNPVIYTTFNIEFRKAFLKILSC

Legend:
[1] = biological target: 5-HT1A receptor (Homo sapiens, UniProt P08908); test: Receptor binding affinity at 5-HT1A (NIMH-PDSP radioligand binding); details: Table 5, Group 3 analogs
[2] = biological target: D3 receptor (Homo sapiens, UniProt P35462); test: Receptor binding affinity at dopamine D3 (NIMH-PDSP radioligand binding); details: read-out: Ki D3; Table 5, Group 3 analogs; Ki without SEM within 20% of mean

| SMILES | pKi ± SEM 5-HT1A [1] | Ki ([1]; read-out: Ki 5-HT1A, Ki without SEM within 20% of mean) | Ki [2] |
| --- | --- | --- | --- |
| O=C1c2ccc(F)cc2CC1CCN1CCc2ccccc2C1 (stereo not drawn) [Compound 3h, 2-(2-(3,4-dihydroisoquinolin-2(1H)-yl)ethyl)-5-fluoro-2,3-dihydro-1H-inden-1-one] | (7.73 ± 0.04) | 19 nM |  |
| Cl.O=C1c2ccccc2CC1CCN1CCc2ccccc2C1 (stereo not drawn) [Compound 3i, 2-(2-(3,4-dihydroisoquinolin-2(1H)-yl)ethyl)-2,3-dihydro-1H-inden-1-one hydrochloride] |  |  | 866 nM |
